Values of other authors, collected in publication PMC3947039 (ACS chemical biology, 2013).

Target: MMP-3
Conditions: read-out: Ki MMP-3; competitive; cited from earlier work

For Nc1ccc(Oc2ccc(S(=O)(=O)CC3CS3)cc2)cc1 (stereo not shown) [ND-322], the Ki is listed as 23.4 ± 1.6 µM.
